scFv variants of Ab-91 (heavy chain) against a SARS-CoV-2 spike peptide

Source: Engelhart et al. 2022 (doi:10.1038/s41597-022-01779-4), MIT Lincoln Laboratory and A-Alpha Bio; data file from the FLAb repository.

Target peptide (SARS-CoV-2 spike, HR2 region): PDVDLGDISGINAS

Ab-91 is the parent antibody, in scFv form: VL, then a 15-residue (Gly4Ser)3 linker, then VH. The light chain is unchanged in all variants.
VL: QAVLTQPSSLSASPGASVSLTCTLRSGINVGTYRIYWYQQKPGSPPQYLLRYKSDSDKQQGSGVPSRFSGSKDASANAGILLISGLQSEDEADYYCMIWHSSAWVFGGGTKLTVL
VH: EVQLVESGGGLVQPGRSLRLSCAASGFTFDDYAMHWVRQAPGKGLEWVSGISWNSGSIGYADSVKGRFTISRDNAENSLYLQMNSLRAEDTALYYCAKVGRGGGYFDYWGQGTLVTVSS

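The parent was found by panning a naive human phage display library on the peptide. In library AAYL51, one, two or three CDR residues were substituted; doubles and triples were drawn at random. Affinity was read by AlphaSeq, a pooled yeast mating assay with surface-displayed partners. Binding brings cells together so that they mate, and sequencing counts the barcode pairs among the diploids. Each replicate has its own calibration line, from reference interactions of the BCL2 family. There are three technical replicates.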

Substitutions are numbered in sequence along the VH above, starting at 1 (not Kabat).
This list gathers variants with a substitution at Y105 (VH, numbered from residue 1).
Numbers give log10(Kd / nM), so 0 is 1 nM and 3 is 1 µM. Smaller is tighter.
Replicates are averaged; those with no signal do not enter the mean.
An entry "no signal" has no value in the source: the pair was not observed among the diploids in any replicate. This suggests poor binding but is not conclusive.
As a blank, each scFv also met three strains without target: over library AAYL51, 21% of these pairings were detected, typically at 4.54 and seldom below 3.26.
For reference, the parent read 1.86 as the reference entry and 0.88 as a member of this library.

* S52M+V99C+Y105D -> no signal (0 of 3 replicates)
* F27Q+G102R+Y105W -> no signal (0 of 3 replicates)
* F29L+W53H+Y105L -> no signal (0 of 3 replicates)
* Y32D+I51L+Y105W -> 5.03 (3 of 3 replicates)
* G26S+I51T+Y105V -> 5.24 (2 of 3 replicates)
* A33I+S55K+Y105D -> 4.53 (3 of 3 replicates)
* G26I+V64R+Y105C -> no signal (0 of 3 replicates)
* D62I+Y105H+Y108M -> 5.37 (3 of 3 replicates)
* A61Q+G103L+Y105V -> 1.15 (3 of 3 replicates)
* T28S+Y105A+F106R -> no signal (0 of 3 replicates)
* V99D+Y105K+D107P -> 2.82 (3 of 3 replicates)
* Y32P+G100M+Y105M -> 4.82 (2 of 3 replicates)
* S63K+V99E+Y105E -> 1.28 (3 of 3 replicates)
* K65A+R101K+Y105R -> 4.47 (1 of 3 replicates)
* N54Q+G102E+Y105M -> 3.58 (1 of 3 replicates)
* G26N+I51Q+Y105I -> 4.76 (3 of 3 replicates)
* T28W+G102Y+Y105E -> 3.36 (2 of 3 replicates)
* W53I+A61M+Y105F -> no signal (0 of 3 replicates)
* G26N+F29T+Y105W -> 3.67 (1 of 3 replicates)
* S52K+W53Q+Y105C -> 4.03 (1 of 3 replicates)
* G50L+Y105V+Y108S -> no signal (0 of 3 replicates)
* N54Q+S55T+Y105C -> 4.47 (3 of 3 replicates)
* T28F+D62H+Y105A -> 4.59 (3 of 3 replicates)
* A33M+I58L+Y105T -> 5.63 (2 of 3 replicates)
* V64H+Y105Q+Y108V -> 5.38 (3 of 3 replicates)
* K65G+Y105V -> 1.78 (3 of 3 replicates)
* M34T+S55I+Y105G -> no signal (0 of 3 replicates)
* F27D+T28G+Y105H -> 4.67 (3 of 3 replicates)
* Y60Q+G102V+Y105C -> 2.55 (3 of 3 replicates)
* Y105R+F106H -> 2.76 (3 of 3 replicates)
* H35Y+A61Q+Y105D -> 3.95 (1 of 3 replicates)
* G50L+G59W+Y105I -> no signal (0 of 3 replicates)
* D31F+G50F+Y105M -> no signal (0 of 3 replicates)
* Y60V+S63I+Y105N -> 2.70 (3 of 3 replicates)
* G56T+Y105G -> no signal (0 of 3 replicates)
* I58H+Y105F -> 2.15 (3 of 3 replicates)
* S55F+K65C+Y105M -> no signal (0 of 3 replicates)
* A33L+S57V+Y105I -> no signal (0 of 3 replicates)
* S57M+D62Q+Y105V -> no signal (0 of 3 replicates)

3 of these entries, quoted again:

changes	log10 Kd (nM), mean	replicates with signal
F29L+W53H+Y105L	no signal	0 of 3
G26I+V64R+Y105C	no signal	0 of 3
A33I+S55K+Y105D	4.53	3 of 3